# In PubChem BioAssay AID540256 (National Center for Advancing Translational Sciences (NCATS), 2011):
# The entries are a selection whose mix differs from that of the whole data set. Some of these compounds have results that are not shown, active ones among them. Records with an inconclusive call do not appear. Activity calls are given as the source filed them. Calls come from the whole dose curve; tested in HEK293 cells.
# Assay: qHTS for Inhibitors of binding or entry into cells for Lassa Virus; note: nearly all actives have a fitted effect of over 50% in size
# Conditions: Lassa virus pseudotype entry inhibition, cell reporter; at 37.9 µM (top of the series)
# % is set by controls: 0 for no effect and ±100 for the full control effect.
row,Structure (SMILES),"activity change, negative = inhibition"
1,CC(C)N1C(=O)CC2(CCN(CCOC(=O)C(O)(c3ccccc3)c3ccccc3)CC2)C1=O,inactive: -11.3%
